Tests used:
[1] = target: pERK (phospho-ERK1/2) in K-562 cells (Homo sapiens, UniProt Q07889); test: pERK HTRF in K-562 cells; settings: read-out: pERK HTRF IC50 (mean), 1 h treatment
[2] = In vitro metabolic stability in human liver microsomes; settings: 1 μM, 0.5 mg/mL protein, pH 7.4, well-stirred liver model
[3] = In vitro metabolic stability in rat hepatocytes; settings: 1 μM, well stirred liver model
[4] = target: hK-RasG12C - hSOS1 interaction (Homo sapiens, UniProt Q07889); test: hK-RasG12C Interaction Assay with hSOS1 (HTRF); settings: read-out: K-RasG12C - SOS interaction assay IC50 (mean), 60 min incubation, 20 °C
[5] = tested on: EGFR with activating EGFR mutations (EGFR del19 and EGFR 1858R) and EGFR T790M; settings: preclinical, EGFR del19, EGFR 1858R; cited from earlier work
[6] = tested on: tumor xenograft and transgenic mouse models harboring activating EGFR mutations and EGFR T790M; settings: cited from earlier work
[7] = In vitro metabolic stability in human hepatocytes
[8] = tested on: cell-lines, xenograft models, and transgenic mouse models harboring activating EGFR mutations and EGFR T790M; settings: preclinical; cited from earlier work

Chains of the proteins cited; added tags and fusions are not shown. Residues count along the entry.
UniProt Q07889, whole entry: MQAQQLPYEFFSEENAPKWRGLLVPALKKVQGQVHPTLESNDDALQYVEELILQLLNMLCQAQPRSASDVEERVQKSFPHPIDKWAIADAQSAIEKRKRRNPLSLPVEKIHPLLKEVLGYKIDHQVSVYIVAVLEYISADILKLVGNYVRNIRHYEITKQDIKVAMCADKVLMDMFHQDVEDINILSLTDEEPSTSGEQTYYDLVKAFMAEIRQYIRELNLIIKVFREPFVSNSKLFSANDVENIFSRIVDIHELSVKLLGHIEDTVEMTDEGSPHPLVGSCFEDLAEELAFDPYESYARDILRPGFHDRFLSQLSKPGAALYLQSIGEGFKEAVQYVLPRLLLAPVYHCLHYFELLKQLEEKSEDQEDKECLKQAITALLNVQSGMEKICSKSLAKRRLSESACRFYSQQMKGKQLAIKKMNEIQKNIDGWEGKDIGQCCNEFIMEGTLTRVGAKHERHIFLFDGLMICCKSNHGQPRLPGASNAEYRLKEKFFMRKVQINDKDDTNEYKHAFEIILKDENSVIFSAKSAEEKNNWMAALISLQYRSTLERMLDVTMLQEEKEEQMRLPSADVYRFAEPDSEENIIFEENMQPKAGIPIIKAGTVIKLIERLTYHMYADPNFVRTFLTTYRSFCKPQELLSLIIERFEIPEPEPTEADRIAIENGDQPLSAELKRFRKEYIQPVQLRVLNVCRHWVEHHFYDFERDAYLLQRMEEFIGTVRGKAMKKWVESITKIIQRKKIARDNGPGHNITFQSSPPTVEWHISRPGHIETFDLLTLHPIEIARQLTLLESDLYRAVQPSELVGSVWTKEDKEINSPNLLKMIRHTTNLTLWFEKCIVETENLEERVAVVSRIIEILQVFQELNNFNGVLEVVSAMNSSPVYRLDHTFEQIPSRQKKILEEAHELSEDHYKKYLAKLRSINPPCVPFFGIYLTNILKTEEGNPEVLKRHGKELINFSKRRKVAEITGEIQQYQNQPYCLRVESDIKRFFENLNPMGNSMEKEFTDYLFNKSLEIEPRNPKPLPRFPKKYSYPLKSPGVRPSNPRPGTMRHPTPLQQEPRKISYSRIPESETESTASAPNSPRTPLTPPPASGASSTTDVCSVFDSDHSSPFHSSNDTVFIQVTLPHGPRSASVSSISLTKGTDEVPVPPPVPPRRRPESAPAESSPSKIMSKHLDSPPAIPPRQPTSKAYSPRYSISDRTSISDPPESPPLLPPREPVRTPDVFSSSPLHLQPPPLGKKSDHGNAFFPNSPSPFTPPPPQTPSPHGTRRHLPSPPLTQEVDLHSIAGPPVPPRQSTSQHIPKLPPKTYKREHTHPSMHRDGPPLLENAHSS
UniProt Q07889, 564-1049 limits assumed: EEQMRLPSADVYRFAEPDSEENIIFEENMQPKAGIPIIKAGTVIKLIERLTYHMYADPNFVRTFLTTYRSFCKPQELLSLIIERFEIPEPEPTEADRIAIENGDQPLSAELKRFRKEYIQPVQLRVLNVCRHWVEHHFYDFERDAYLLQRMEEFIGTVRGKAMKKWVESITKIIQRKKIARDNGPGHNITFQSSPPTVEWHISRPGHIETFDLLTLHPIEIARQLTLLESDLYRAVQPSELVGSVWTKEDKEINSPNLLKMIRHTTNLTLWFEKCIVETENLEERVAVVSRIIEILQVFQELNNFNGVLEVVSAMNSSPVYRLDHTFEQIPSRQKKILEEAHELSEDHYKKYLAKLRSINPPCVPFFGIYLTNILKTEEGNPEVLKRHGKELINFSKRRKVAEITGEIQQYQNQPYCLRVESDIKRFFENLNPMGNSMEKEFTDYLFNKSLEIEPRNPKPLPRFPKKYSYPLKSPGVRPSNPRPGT

Structure (SMILES) | IC50 [1] [µM] | Fmax human liver microsomes (maximal oral bioavailability) [2] [%] | Fmax rat hepatocytes (maximal oral bioavailability) [3] [%] | IC50 [4] [µM] | inhibition of phosphorylation of EGFR in mutant cell lines [5] | tumor regression [6] | Fmax human hepatocytes (maximal oral bioavailability) [7] [%] | tumor regression [8]
Cc1nc(N[C@H](C)c2cccc(C(F)(F)C(C)(O)C3CCC3)c2F)c2cc(P3(=O)CCCC3)ncc2n1 (mixture of isomers) | 0.126 | 10 | 4 | 0.0961 |  |  |  | 
Cc1nc(N[C@H](C)c2cccc(C(F)(F)C(O)C3CC3)c2F)c2cc(P3(=O)CCCC3)ncc2n1 (single isomer, unassigned) [Example 10] | 0.0278 | 34 | 90 | 0.0132 |  |  |  | 
Cc1nc(N[C@H](C)c2cccc(C(F)(F)C(O)C3CC3)c2F)c2cc(P(C)(C)=O)ncc2n1 (single isomer, unassigned) [Example 8] | 0.0164 | 49 | 100 | 0.00372 |  |  |  | 
Cc1nc(N[C@H](C)c2cccc(C(F)(F)C(C)(O)C3CCC3)c2F)c2cc(P(C)(C)=O)ncc2n1 (mixture of isomers) | 0.0769 | 17 | 5 | 0.00917 |  |  |  | 
Cc1nc(N[C@H](C)c2cccc(C(F)(F)C(C)(O)C3CCC3)c2F)c2cc(P3(=O)CC=CC3)ncc2n1 (mixture of isomers) | 0.129 | 14 | 3 | 0.0124 |  |  |  | 
Cc1nc(N[C@H](C)c2cccc(C(F)(F)C(O)C3CC3)c2F)c2cc(P3(=O)CCCC3)ncc2n1 (single isomer, unassigned) [Example 9] | 0.133 | 32 | 87 | 0.0192 |  |  |  | 
Cc1nc(N[C@H](C)c2cccc(C(F)(F)C(O)C3CC3)c2F)c2cc(P(C)(C)=O)ncc2n1 (single isomer, unassigned) [Example 7] | 0.287 | 38 | 100 | 0.0194 |  |  |  | 
C=CC(=O)Nc1cc(Nc2nccc(-c3cn(C)c4ccccc34)n2)c(OC)cc1N(C)CCN(C)C |  |  |  |  | potently inhibited phosphorylation of EGFR | profound and sustained tumor regression |  | 
Cc1nc(N[C@H](C)c2cccc(C(F)(F)C(C)(O)C3CC3)c2F)c2cc(P(C)(C)=O)ncc2n1 (single isomer, unassigned) [Example 1.1] | 0.042 | 100 | 73 | 0.00562 |  |  | 91 | 
Cc1nc(N[C@H](C)c2cccc(C(F)(F)C(C)(O)C3CCC3)c2F)c2cc(P(C)(C)=O)ncc2n1 (single isomer, unassigned) [Example 6.1] | 0.0564 | 18 | 4 | 0.00528 |  |  |  | 
CCC(C)(O)C(F)(F)c1cccc([C@@H](C)Nc2nc(C)nc3cnc(P(C)(C)=O)cc23)c1F (single isomer, unassigned) [Example 11] | 0.076 | 64 | 42 | 0.0171 |  |  |  | 
C=CC(=O)Nc1cccc(Nc2nc(Nc3ccc(N4CCN(C(C)=O)CC4)cc3OC)ncc2C(F)(F)F)c1 |  |  |  |  |  |  |  | led to tumor regression
Cc1nc(N[C@H](C)c2cccc(C(F)(F)C(C)(O)C3CC3)c2F)c2cc(P3(=O)CCCC3)ncc2n1 (mixture of isomers) | 0.0758 | 23 | 52 | 0.00539 |  |  |  | 
Cc1nc(N[C@H](C)c2cccc(C(F)(F)C(C)(O)C3CC3)c2F)c2cc(P3(=O)CC=CC3)ncc2n1 (mixture of isomers) | 0.086 | 18 | 20 | 0.00697 |  |  |  | 
Cc1nc(N[C@H](C)c2cccc(C(F)(F)C(C)(O)C3CC3)c2F)c2cc(P(C)(C)=O)ncc2n1 (mixture of isomers) | 0.0903 | 90 | 63 | 0.0112 |  |  |  | 
Cc1nc(N[C@H](C)c2cccc(C(F)(F)C(C)(O)C3CC3)c2F)c2cc(P(C)(C)=O)ncc2n1 (single isomer, unassigned) [Example 1.2] | 0.128 | 86 | 77 | 0.0128 |  |  | 80 | 
CCC(C)(O)C(F)(F)c1cccc([C@@H](C)Nc2nc(C)nc3cnc(P(C)(C)=O)cc23)c1F (single isomer, unassigned) [Example 12] | 0.11 | 72 | 44 | 0.0267 |  |  |  | 

Source: patent US20260382644A1, “SOS1 INHIBITORS” (published 2026)
